Biological target: ArsH (Pden_3133; N-His6-ArsH) (Paracoccus denitrificans, UniProt A1B6S0)
Assay: NADPH oxidation at […] nm, extra initial velocity over FMN-only rate, bisubstrate fit
Conditions: read-out: KM^PhAsO(OH)2 (apparent); 50 μM FMN fixed, NADPH varied; 0.1 M sodium phosphate pH 7.0, 30 °C; ping-pong

Sequences of proteins named here, by UniProt entry; tags and fusion partners are left off. Residues count along the entry.
UniProt A1B6S0, 1-235 limits assumed: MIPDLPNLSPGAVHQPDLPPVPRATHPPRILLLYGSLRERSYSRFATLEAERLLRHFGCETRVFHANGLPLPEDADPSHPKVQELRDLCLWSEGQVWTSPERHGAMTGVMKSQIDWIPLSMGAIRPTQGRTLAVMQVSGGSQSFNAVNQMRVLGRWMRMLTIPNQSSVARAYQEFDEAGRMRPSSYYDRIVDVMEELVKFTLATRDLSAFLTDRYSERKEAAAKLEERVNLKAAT

Compound O=[As](O)(O)c1ccccc1 has a Km of 177 µM.
